Test results as given in ChEMBL document CHEMBL1126447 (Bioorg Med Chem Lett, 1992).

How the values were obtained:
Acetylcholinesterase [1] = biological target: Acetylcholinesterase (Electrophorus electricus, UniProt O42275)
Butyrylcholinesterase = Butyrylcholinesterase (Equus caballus, UniProt Q9N1N9)
Acetylcholinesterase [2] = biological target: Acetylcholinesterase (Homo sapiens, UniProt P22303)

## Nc1c2c(nc3ccc(Cl)cc13)C1CCC2C1 (stereo not drawn)
Acetylcholinesterase [1]
  IC50: 77.7 nM
Butyrylcholinesterase
  IC50: 17 nM
Acetylcholinesterase [2]
  IC50: 1100 nM
